Test results published in publication PMC3618674 (Brain research, 2012).

Test system: L-DOPA methylation
Test: Animal experiment III: L-DOPA methylation in dopamine-depleted
Format: in vivo, rat
Conditions: reserpinized rats; 2 h after oral L-DOPA/carbidopa 20/20 mg/kg

L-DOPA/carbidopa
plasma 3-OMD level: 16.4 ± 1.9 µM
